For one assay, the target named is T1, PKC α (Homo sapiens, UniProt P17252).
T1 construct: purchased CALBIOCHEM
Nature of the assay: PKC enzyme assay (BIOTRAK Protein kinase C enzyme assay system, 32P-ATP phosphorylation of peptide […]). The assay is classed as biochemical. The protocol: As the reagent for enzyme assay, BIOTRAK Protein kinase C enzyme assay system (hereinafter the system, Amersham), and as the PKC enzyme standard product, Protein Kinase C, Human Recombinant (CALBIOCHEM) were purchased and used in the assay. A substrate mixture was prepared by mixing calcium buffer (12 mM calcium acetate, 50 mM Tris/HCl pH 7.5, 0.05% (w/v) sodium azide), Lipid (0.3 mg/ml La-phosphatidyl-L-serine, […] phorbol 12-myristate 13-acetate, 50 mM Tris/HCl pH 7.5, 0.05% (w/v) sodium azide), peptide buffer (900 µM peptide […]), 50 mM Tris/HCl pH 7.5, 0.05% (w/v) sodium azide), DTT buffer (30 mM dithiothreitol, 50 mM Tris/HCl pH 7.5, 0.05% (w/v) sodium azide), and magnesium ATP buffer (1.2 mM ATP, […] pH 7.4, 72 mM magnesium chloride) all attached to the system in a ratio of 1:1:1:1:0.8 and adding [ y -32P]ATP (Amersham, cat. […] The reaction terminator (300 mM orthophosphoric acid containing carmosine red) attached to the system was added in the amount equivalent to the substrate mixture to end the reaction, and the reaction mixture was spotted on a phosphocellulose paper (Whatman, P-81), washed twice with 75 mM orthophosphoric acid and assayed for radioactivity by BAS2000 (Fuji film).
(§1) The ratio of the radioactivity of the addition of the test substance to the addition of DMSO was determined, and IC50 was calculated from inhibition at each concentration.

Protein sequences, listed by entry. Tags and fused reporters are not part of them. Chains listed by the source or under a name are the forms on record and can include a tag or linker.
UniProt P05771, other isoform, or with tags, fused parts or gaps: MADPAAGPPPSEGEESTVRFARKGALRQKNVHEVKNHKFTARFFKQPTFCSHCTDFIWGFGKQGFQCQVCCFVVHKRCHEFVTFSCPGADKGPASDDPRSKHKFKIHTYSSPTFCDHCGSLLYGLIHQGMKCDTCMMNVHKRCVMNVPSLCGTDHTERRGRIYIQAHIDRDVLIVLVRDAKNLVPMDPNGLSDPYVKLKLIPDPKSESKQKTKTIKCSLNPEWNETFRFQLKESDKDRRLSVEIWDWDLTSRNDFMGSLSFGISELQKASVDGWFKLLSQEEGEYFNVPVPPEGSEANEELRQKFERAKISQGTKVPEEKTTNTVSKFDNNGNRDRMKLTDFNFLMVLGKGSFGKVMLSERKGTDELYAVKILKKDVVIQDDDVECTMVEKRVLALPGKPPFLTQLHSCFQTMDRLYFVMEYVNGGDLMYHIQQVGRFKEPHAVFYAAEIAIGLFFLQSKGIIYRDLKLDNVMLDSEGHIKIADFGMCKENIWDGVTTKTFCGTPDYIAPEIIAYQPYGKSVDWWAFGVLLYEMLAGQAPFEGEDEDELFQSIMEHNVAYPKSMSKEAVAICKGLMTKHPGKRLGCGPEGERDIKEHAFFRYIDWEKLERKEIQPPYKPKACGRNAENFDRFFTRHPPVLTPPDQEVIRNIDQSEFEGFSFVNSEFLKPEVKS

The target of a further assay is T2, PKC β II (Homo sapiens, UniProt P05771).
T2 construct: purchased CALBIOCHEM
The assay is described as above. The assay is classed as biochemical. As to conditions: IC50 PKC α / IC50 PKC β II.
Excerpt: The method for determining the PKC inhibitory activity of the compound of the present invention is explained in the following. Inasmuch as PKCβII is present in greater number in intravascular cells than PKCβI, PKCβII was mainly used here to test the enzyme activity.
As the reagent for enzyme assay, BIOTRAK Protein kinase C enzyme assay system (hereinafter the system, Amersham), and as the PKC enzyme standard product, Protein Kinase C, Human Recombinant (CALBIOCHEM) were purchased and used in the assay. […] The reaction terminator (300 mM orthophosphoric acid containing carmosine red) attached to the system was added in the amount equivalent to the substrate mixture to end the reaction, and the reaction mixture was spotted on a phosphocellulose paper (Whatman, P-81), washed twice with 75 mM orthophosphoric acid and assayed for radioactivity by BAS2000 (Fuji film).
as §1

By IC50 is commonly meant the concentration that inhibits the measured activity by half. Low values mean higher potency, high ones lower potency. `O=C1NC(=O)C(c2cn(CCCN3CCCCCC3)c3ccccc23)=C1Nc1ccccc1` [Example 2-23, 3-[1-(3-azacycloheptan-1-ylpropyl)-1H-indol-3-yl]-4-(phenylamino)-1H-pyrrole-2,5-dione] showed an IC50 against PKC α of 399 nM. In addition, the “Ratio α/β” value at PKC β II was found to be 40.
